Amino acid sequences for entries named in this document (tags omitted).
UniProt P33535, whole entry: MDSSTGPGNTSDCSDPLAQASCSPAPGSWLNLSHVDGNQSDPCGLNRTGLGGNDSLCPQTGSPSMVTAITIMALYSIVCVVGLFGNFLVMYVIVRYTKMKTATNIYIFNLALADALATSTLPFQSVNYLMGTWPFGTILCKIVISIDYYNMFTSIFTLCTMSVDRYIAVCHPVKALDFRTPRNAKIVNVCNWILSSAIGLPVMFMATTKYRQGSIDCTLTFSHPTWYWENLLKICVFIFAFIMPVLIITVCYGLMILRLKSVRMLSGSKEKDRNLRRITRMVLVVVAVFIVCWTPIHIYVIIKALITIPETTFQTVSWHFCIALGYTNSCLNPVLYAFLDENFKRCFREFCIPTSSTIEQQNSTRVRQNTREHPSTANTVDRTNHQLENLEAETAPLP

In paper PMC3057186, “Identification and characterization of seven new exon 11-associated splice variants of the rat mu opioid receptor gene, OPRM1” (Molecular Pain, 2011):

Biological target: T1, rMOR-1 (Rattus norvegicus, UniProt P33535)
T1 construct: gene Oprm1; no tag told
Experiment: [3H]DAMGO saturation binding, CHO membranes

Question: Which Kd does the source give for `C[C@@H](NC(=O)[C@@H](N)Cc1ccc(O)cc1)C(=O)NCC(=O)N(C)[C@@H](Cc1ccccc1)C(=O)NCCO` [DAMGO] here?
Answer: Its Kd is 390 ± 30 pM.
